Data: IntAct's records for PubMed 31515488

B1: TNFAIP3-interacting protein 1 (Homo sapiens), Q15025 (parent)
chain: MEGRGPYRIYDPGGSVPSGEASAAFERLVKENSRLKEKMQGIKMLGELLEESQMEATRLRQKAEELVKDNELLPPPSPSLGSFDPLAELTGKDSNVTASPTAPACPSDKPAPVQKPPSSGTSSEFEVVTPEEQNSPESSSHANAMALGPLPREDGNLMLHLQRLETTLSVCAEEPDHGQLFTHLGRMALEFNRLASKVHKNEQRTSILQTLCEQLRKENEALKAKLDKGLEQRDQAAERLREENLELKKLLMSNGNKEGASGRPGSPKMEGTGKKAVAGQQQASVTAGKVPEVVALGAAEKKVKMLEQQRSELLEVNKQWDQHFRSMKQQYEQKITELRQKLADLQKQVTDLEAEREQKQRDFDRKLLLAKSKIEMEETDKEQLTAEAKELRQKVKYLQDQLSPLTRQREYQEKEIQRLNKALEEALSIQTPPSSPPTAFGSPEGAGALLRKQELVTQNELLKQQVKIFEEDFQRERSDRERMNEEKEELKKQVEKLQAQVTLSNAQLKAFKDEEKAREALRQQKRKAKASGERYHVEPHPEHLCGAYPYAYPPMPAMVPHHGFEDWSQIRYPPPPMAMEHPPPLPNSRLFHLPEYTWRLPCGGVRNPNQSSQVMDPPTARPTEPESPKNDREGPQ
partner: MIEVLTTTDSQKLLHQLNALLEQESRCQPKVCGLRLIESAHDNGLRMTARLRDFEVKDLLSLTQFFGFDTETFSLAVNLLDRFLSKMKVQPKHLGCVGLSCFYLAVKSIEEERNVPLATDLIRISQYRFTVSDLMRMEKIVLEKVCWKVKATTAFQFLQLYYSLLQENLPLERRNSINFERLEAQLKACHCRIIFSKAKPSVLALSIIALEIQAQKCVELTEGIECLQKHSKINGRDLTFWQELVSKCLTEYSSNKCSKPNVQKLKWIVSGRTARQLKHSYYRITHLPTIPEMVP
B2: TNFAIP3-interacting protein 1 (Homo sapiens), Q15025 (parent)
chain: B1 chain
B3: 26S proteasome non-ATPase regulatory subunit 5 (Homo sapiens), Q16401 (parent)
chain: MAAQALALLREVARLEAPLEELRALHSVLQAVPLNELRQQAAELRLGPLFSLLNENHREKTTLCVSILERLLQAMEPVHVARNLRVDLQRGLIHPDDSVKILTLSQIGRIVENSDAVTEILNNAELLKQIVYCIGGENLSVAKAAIKSLSRISLTQAGLEALFESNLLDDLKSVMKTNDIVRYRVYELIIEISSVSPESLNYCTTSGLVTQLLRELTGEDVLVRATCIEMVTSLAYTHHGRQYLAQEGVIDQISNIIVGADSDPFSSFYLPGFVKFFGNLAVMDSPQQICERYPIFVEKVFEMIESQDPTMIGVAVDTVGILGSNVEGKQVLQKTGTRFERLLMRIGHQSKNAPVELKIRCLDAISSLLYLPPEQQTDDLLRMTESWFSSLSRDPLELFRGISSQPFPELHCAALKVFTAIANQPWAQKLMFNSPGFVEYVVDRSVEHDKASKDAKYELVKALANSKTIAEIFGNPNYLRLRTYLSEGPYYVKPVSTTAVEGAE
B4: T-cell leukemia/lymphoma protein 1A (Homo sapiens), P56279 (parent)
chain: MAECPTLGEAVTDHPDRLWAWEKFVYLDEKQHAWLPLTIEIKDRLQLRVLLRREDVVLGRPMTPTQIGPSLLPIMWQLYPDGRYRSSDSSFWRLVYHIKIDGVEDMLLELLPDD
partner: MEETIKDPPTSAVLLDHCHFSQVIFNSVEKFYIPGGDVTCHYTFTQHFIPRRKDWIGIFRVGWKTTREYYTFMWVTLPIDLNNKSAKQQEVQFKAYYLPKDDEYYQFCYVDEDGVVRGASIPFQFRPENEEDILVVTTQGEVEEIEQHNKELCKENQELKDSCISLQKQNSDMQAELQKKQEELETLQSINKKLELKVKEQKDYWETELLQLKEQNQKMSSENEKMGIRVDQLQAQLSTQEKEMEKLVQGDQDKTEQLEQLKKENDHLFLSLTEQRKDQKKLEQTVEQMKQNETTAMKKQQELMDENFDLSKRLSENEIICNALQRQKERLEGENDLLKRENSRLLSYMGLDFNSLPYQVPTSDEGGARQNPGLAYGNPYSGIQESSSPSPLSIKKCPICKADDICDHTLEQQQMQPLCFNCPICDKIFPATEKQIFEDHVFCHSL
B5: T-cell leukemia/lymphoma protein 1A (Homo sapiens), P56279 (parent)
chain: B4 chain

Variants of: B1
Conditions: with ccng1_human CCNG1, P51959

Variant	effect of a mutation on the interaction
Q214K	with no effect

Variants of: B2
Conditions: with mo4l2_human MORF4L2, Q15014

Variant	effect of a mutation on the interaction
V16M	with no effect
K30T	with no effect
G178S	with no effect

Variants of: B2
Conditions: with ndc80_human NDC80, O14777

Variant	effect of a mutation on the interaction
V16M	with no effect
K30T	with no effect
G178S	with no effect

Variants of: B2
Conditions: with mo4l1_human MORF4L1

Variant	effect of a mutation on the interaction
V16M	with no effect
K30T	with no effect
G178S	with no effect

Variants of: B2
Conditions: with mlp3b_human MAP1LC3B

Variant	effect of a mutation on the interaction
V16M	with no effect
K30T	with no effect
G178S	with no effect

Variants of: B2
Conditions: with gbrl1_human GABARAPL1

Variant	effect of a mutation on the interaction
V16M	with no effect
K30T	with no effect
G178S	with no effect

Variants of: B2
Conditions: with tean2_human TCEANC2, Q96MN5

Variant	effect of a mutation on the interaction
V16M	with no effect
K30T	with no effect
G178S	with no effect

Variants of: B2
Conditions: with tf2b_human GTF2B

Variant	effect of a mutation on the interaction
V16M	with no effect
K30T	with no effect
G178S	with no effect
Q214K	with no effect

Variants of: B2
Conditions: with optn_human OPTN

Variant	effect of a mutation on the interaction
V16M	with no effect
K30T	with no effect
G178S	with no effect

Variants of: B3
Conditions: with prs4_human PSMC1, P62191

Variant	effect of a mutation on the interaction
MAAQALSLLREVARLEAPLEELRALHSVLQAVPLNELRQQAAELRLGPLFSLLNENHREKTTLCVSILERLLQAMEPVHVARNLRVDLQRGLIHPDDSVKILTLSQIGRIVENSDAVTEILNNAELLKQIVYCIGGENLSVAKAAIKSLSRISLTQAGLEALFESNLLDDLKSVMKTNDIVRYRVYELIIEISSVSPESLNYCTTSGLVTQLLRELTGEDVLVRATCIEMVTSLAYTHHGRQYLAQEGVIDQISNIIVGADSDPFSSFYLPGFVKFFGNLAVMDSPQQICERYPIFVEKVFEMIESQDPTMIGVAVDTVGILGSNVEGKQVLQKTGTRFERLLMRIGHQSKNAPVELKIRCLDAISSLLYLPPEQQTDDLLRMTESWFSSLSRDPLELFRGISSQPFPELHCAALKVFTAIANQPWAQKLMFNSPGFVEYVVDRSVEHDKASKDAKYELVKALANSKTIAEIFGNPNYLRLRTYLSEGPYYVKPVSTTAVEGAE [A7S]	disrupting interaction strength

Variants of: B3
Conditions: with prs7_human PSMC2, P35998

Variant	effect of a mutation on the interaction
MAAQALSLLREVARLEAPLEELRALHSVLQAVPLNELRQQAAELRLGPLFSLLNENHREKTTLCVSILERLLQAMEPVHVARNLRVDLQRGLIHPDDSVKILTLSQIGRIVENSDAVTEILNNAELLKQIVYCIGGENLSVAKAAIKSLSRISLTQAGLEALFESNLLDDLKSVMKTNDIVRYRVYELIIEISSVSPESLNYCTTSGLVTQLLRELTGEDVLVRATCIEMVTSLAYTHHGRQYLAQEGVIDQISNIIVGADSDPFSSFYLPGFVKFFGNLAVMDSPQQICERYPIFVEKVFEMIESQDPTMIGVAVDTVGILGSNVEGKQVLQKTGTRFERLLMRIGHQSKNAPVELKIRCLDAISSLLYLPPEQQTDDLLRMTESWFSSLSRDPLELFRGISSQPFPELHCAALKVFTAIANQPWAQKLMFNSPGFVEYVVDRSVEHDKASKDAKYELVKALANSKTIAEIFGNPNYLRLRTYLSEGPYYVKPVSTTAVEGAE [A7S]	with no effect

Variants of: B4
Conditions: with caco2_human CALCOCO2, Q13137

Variant	effect of a mutation on the interaction
MAECPTLGEAVTDHPDRLWAWEKFVYLDEKQHAWLPLTIEIKDRLQLRVLLRREDVVLGRPMTPTQIGPSLLPIMWQLYPDGRYRSSDSSFWRLVYHIKIDGMEDMLLELLPDD [V103M]	with no effect

Variants of: B5
Conditions: with ttc33_human TTC33

Variant	effect of a mutation on the interaction
MAECPTLGEAVTDHPDRLWAWEKFVYLDEKQHAWLPLTIEIKDRLQLRVLLRREDVVLGRPMTPTQIGPSLLPIMWQLYPDGRYRSSDSSFWRLVYHIKIDGMEDMLLELLPDD [V103M]	with no effect

Variants of: B5
Conditions: with dnm3a_human DNMT3A

Variant	effect of a mutation on the interaction
MAECPTLGEAVTDHPDRLWAWEKFVYLDEKQHAWLPLTIEIKDRLQLRVLLRREDVVLGRPMTPTQIGPSLLPIMWQLYPDGRYRSSDSSFWRLVYHIKIDGMEDMLLELLPDD [V103M]	with no effect

Variants of: B5
Conditions: with caps1_human CADPS

Variant	effect of a mutation on the interaction
MAECPTLGEAVTDHPDRLWAWEKFVYLDEKQHAWLPLTIEIKDRLQLRVLLRREDVVLGRPMTPTQIGPSLLPIMWQLYPDGRYRSSDSSFWRLVYHIKIDGMEDMLLELLPDD [V103M]	with no effect
